{
  "source": "patent US20110166128A1",
  "about": "“Diaryldiazepine Prodrugs for the Treatment of Neurological and Psychological Disorders” (priority 2010, published 2011)",
  "experiment": "Equilibrium solubility in aqueous buffers as a function of pH",
  "details": "room temperature; 0.1 M citrate (pH 4, 5) or 0.1 M phosphate (pH 6, 7, 8) buffers with 0.2 M NaCl; pH range 4-9 as stated",
  "text": "At pH 4 and 5, 0.1 M citrate buffers were used, while for pH 6, 7 and 8 a set of 0.1M phosphate buffers were used. Each buffer also contained 0.2 M NaCl. No cosolvents or other potentially solubilizing components were included. Buffer preparations were subdivided in order to individually test the solubility of only one material in a given buffer sample.",
  "data": [
    {"smiles": "Cc1cc2c(s1)Nc1ccccc1N=C2N1CCN(C)CC1.O.O=C(O)c1cc2ccccc2c(Cc2c(O)c(C(=O)O)cc3ccccc23)c1O", "note": "[olanzapine pamoate salt]", "values": [
      {"measurement": "variation in solubility across the pH range studied", "result": "> 10", "unit": "fold"}
    ]}
  ]
}
